Results reported in patent US6417247B1, “Polymer/ceramic composites” (priority 1997, dated 2002).

Test: Release of model compounds from chitosan-calcium phosphate composites in PBS
Conditions: chitosan-TCP composite, PBS pH 7.4, 37° C., FIG. 12

Substance: bovine serum albumin [BSA]
- time over which the model compound was released from the composite: 40 h
